Results taken from patent publication US20250243186A1, “PIPERIDINYL INDOLE DERIVATIVES, PREPARATION METHODS AND MEDICINAL USES THEREOF” (HANSOH BIO LLC, priority 2021, published 2025).
pIC50: −log10 of the molar value.

By UniProt entry, the sequences of proteins in these tests, tags left out. Residues count along the entry.
UniProt P00751, 470-764 limits assumed: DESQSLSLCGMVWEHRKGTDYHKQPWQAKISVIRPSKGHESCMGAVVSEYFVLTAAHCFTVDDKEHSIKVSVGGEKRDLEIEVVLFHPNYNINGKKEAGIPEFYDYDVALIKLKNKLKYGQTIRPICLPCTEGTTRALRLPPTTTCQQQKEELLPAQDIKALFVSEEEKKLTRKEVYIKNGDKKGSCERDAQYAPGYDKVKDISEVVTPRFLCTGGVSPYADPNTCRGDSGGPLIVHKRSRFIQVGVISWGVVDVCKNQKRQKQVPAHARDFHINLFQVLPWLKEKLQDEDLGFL

Tests used:
[1] = target: T1, Recombinant human Factor B catalytic domain (Homo sapiens (Human), UniProt P00751)
[2] = target: T1, Recombinant human Factor B catalytic domain; test: Factor B binding assay by TR-FRET; settings: read-out: Factor B TR-FRET IC50; 10 nM his-tagged Factor B catalytic domain, 100 nM tracer, 1 h

Row | SMILES | half-life [1] [min] | pIC50 [2]
1 | COc1cc(C)c2[nH]ccc2c1CN1CCC2(C[C@H]1c1ccc(C(=O)O)cc1C(F)F)CC(F)(F)C2 | 53.5 | –
2 | COc1cc(C)c2[nH]ccc2c1CN1CCC2(CC(F)C2)CC1c1ccc(C(=O)O)cc1 (single isomer, unassigned) [40 (Isomer 1)] | – | 8.74
3 | COc1cc(C)c2[nH]ccc2c1CN1CCC2(CC(F)C2)CC1c1ccc(C(=O)O)cc1 (single isomer, unassigned) [40 (Isomer 2)] | – | 8.52
